Values quoted from earlier work, collected in patent US20160378912A1, “STRUCTURE-BASED MODELING AND TARGET-SELECTIVITY PREDICTION” (EPIGENETX, LLC, priority 2013, published 2016).

Sequences of proteins named here, by UniProt entry; tags and fusion partners are left off. A change or cut given only in a name is not applied to a line headed by its entry.
UniProt Q9UQL6: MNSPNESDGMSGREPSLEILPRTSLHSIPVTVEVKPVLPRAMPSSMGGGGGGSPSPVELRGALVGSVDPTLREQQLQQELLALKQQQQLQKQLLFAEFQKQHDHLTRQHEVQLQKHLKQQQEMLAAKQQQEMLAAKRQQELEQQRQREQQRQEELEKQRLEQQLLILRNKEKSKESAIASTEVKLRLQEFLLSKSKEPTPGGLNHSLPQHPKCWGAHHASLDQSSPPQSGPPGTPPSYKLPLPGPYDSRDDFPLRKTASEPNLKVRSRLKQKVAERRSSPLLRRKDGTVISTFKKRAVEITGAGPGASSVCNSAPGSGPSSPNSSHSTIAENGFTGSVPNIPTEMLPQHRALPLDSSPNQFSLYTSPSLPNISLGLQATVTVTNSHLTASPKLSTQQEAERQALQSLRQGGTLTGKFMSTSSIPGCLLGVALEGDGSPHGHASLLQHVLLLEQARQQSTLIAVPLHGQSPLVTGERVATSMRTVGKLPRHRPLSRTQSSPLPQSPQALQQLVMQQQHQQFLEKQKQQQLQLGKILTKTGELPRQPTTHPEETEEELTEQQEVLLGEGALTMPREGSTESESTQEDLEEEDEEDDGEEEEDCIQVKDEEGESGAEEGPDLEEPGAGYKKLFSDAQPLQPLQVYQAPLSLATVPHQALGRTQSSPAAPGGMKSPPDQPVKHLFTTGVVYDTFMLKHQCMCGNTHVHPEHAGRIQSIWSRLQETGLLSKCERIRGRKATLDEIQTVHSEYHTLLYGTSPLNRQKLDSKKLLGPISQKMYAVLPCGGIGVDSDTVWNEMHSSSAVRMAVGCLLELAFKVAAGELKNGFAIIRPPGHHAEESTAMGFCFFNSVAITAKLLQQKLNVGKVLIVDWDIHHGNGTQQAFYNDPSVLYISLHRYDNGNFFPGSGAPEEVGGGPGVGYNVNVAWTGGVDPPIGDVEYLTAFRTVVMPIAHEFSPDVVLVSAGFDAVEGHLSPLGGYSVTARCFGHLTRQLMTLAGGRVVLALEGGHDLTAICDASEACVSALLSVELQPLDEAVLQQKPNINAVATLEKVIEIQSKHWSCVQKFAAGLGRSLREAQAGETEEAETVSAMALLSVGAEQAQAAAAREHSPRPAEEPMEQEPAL
UniProt Q9UKV0: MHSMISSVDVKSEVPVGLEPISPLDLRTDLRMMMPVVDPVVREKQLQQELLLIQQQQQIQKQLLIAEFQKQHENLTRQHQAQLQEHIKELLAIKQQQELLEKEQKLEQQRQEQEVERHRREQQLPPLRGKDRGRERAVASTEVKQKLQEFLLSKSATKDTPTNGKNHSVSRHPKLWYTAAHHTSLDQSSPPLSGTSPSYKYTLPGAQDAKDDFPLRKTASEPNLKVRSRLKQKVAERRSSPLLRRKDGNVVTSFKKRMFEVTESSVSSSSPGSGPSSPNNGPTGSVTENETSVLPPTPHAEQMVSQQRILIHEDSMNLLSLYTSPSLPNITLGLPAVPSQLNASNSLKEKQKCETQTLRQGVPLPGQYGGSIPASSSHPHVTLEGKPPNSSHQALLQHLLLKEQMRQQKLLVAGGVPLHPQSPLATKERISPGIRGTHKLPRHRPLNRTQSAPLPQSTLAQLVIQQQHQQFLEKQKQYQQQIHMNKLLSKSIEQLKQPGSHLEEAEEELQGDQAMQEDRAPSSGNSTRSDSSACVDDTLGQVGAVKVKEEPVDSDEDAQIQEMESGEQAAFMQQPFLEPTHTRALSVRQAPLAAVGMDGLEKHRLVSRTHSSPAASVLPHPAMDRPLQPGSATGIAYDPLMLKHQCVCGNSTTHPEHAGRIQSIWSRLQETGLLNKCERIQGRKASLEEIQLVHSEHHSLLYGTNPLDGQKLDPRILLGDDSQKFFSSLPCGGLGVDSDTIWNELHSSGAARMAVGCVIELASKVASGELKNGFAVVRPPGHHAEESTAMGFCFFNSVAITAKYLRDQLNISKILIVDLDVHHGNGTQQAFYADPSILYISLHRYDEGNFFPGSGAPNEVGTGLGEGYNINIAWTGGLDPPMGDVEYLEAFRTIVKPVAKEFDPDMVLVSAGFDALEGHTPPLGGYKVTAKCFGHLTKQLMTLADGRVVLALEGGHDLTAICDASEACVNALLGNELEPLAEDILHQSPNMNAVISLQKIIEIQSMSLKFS

How the values were obtained:
HDAH = target: T1, HDAH (Alcaligenes sp., UniProt Q70I53); details: CTS; cited from earlier work
T1 sequence (Q70I53 1-369): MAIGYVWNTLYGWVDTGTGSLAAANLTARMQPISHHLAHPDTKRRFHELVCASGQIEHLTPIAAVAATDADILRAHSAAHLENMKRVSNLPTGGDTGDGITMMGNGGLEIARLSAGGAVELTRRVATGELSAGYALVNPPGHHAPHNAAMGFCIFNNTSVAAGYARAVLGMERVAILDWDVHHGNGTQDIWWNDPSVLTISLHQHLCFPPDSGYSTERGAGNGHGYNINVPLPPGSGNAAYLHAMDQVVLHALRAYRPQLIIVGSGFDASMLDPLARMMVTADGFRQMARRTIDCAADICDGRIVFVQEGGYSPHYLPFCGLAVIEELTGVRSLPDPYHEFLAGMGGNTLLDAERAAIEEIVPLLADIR

HDAC5 = HDAC5 (Homo sapiens, UniProt Q9UQL6); details: cited from earlier work
HDAC9 = HDAC9 (Homo sapiens, UniProt Q9UKV0); details: cited from earlier work
[1] = experimental value of modeled complex
[2] = training set, read-out: HDACs inhibitory activities IC50

Row | Compound | Experimental pIC50 (HDAH) | IC50 (HDAH) [nM] | pIC50exp (HDAC5; [1]) | pIC50 (HDAC5; training set composition) | IC50 (HDAC5; [2]) [nM] | pIC50exp (HDAC9; [1]) | pIC50 (HDAC9; training set composition) | IC50 (HDAC9; [2]) [nM]
1 | O=C(CCCCCCC(=O)Nc1ccccc1)NO [SAHA, octanedioic acid hydroxyamidephenylamide] | 6.02 | 950 |  |  |  |  |  | 
2 | CC(/C=C/C(=O)NO)=C\[C@H](C)C(=O)c1ccc(N(C)C)cc1 (stereo in doubt) [TSA, 7-(4-(Dimethylamino)phenyl)-N-hydroxy-4,6-dimethyl-7-oxo-2,4-heptadienamide] |  |  | 7.796 | 7.80 | 16.5 | 7.419 | 7.42 | 38.1
